In the test the target is recombinant human TNFα (Peprotech, Cat. No. 300-01) (human, UniProt P01375 77-233, biotinylated in the inhibition and competition ELISAs; unlabelled elsewhere). The test is described as follows: cell-based or functional assay.

Amino acid sequences for entries named in this document (tags omitted). Residues count along the entry.
UniProt P01375, 77-233 limits assumed: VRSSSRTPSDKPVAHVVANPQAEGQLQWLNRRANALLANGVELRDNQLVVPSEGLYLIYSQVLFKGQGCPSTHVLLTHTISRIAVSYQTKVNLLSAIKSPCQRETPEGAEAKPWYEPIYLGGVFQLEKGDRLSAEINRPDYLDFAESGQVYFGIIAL

This is an account of results in US20190153089A1 (NUMAB INNOVATION, published 2019).

B1: infliximab (antibody, V domains shown)
VH: EVKLEESGGGLVQPGGSMKLSCVASGFIFSNHWMNWVRQSPEKGLEWVAEIRSKSINSATHYAESVKGRFTISRDDSKSAVYLQMTDLRTEDTGVYYCSRNYYGSTYDYWGQGTTLTVSS
VL: DILLTQSPAILSVSPGERVSFSCRASQFVGSSIHWYQQRTNGSPRLLIKYASESMSGIPSRFSGSGSGTDFTLSINTVESEDIADYYCQQSHSWPFTFGSGTNLEVKR
Regarding B1, the “IC50 to neutralize TNFα-induced apoptosis of L929 fibroblasts (100 pM TNFα, screening format)” value worked out at 36.2 ng/mL.
